We go through 3 compounds from publication PMC3124361 (Journal of medicinal chemistry, 2011).

Assay [1] addresses T1, PfDHODH (Plasmodium falciparum, UniProt Q08210).
T1 sequence (Q08210 158-569 limits assumed): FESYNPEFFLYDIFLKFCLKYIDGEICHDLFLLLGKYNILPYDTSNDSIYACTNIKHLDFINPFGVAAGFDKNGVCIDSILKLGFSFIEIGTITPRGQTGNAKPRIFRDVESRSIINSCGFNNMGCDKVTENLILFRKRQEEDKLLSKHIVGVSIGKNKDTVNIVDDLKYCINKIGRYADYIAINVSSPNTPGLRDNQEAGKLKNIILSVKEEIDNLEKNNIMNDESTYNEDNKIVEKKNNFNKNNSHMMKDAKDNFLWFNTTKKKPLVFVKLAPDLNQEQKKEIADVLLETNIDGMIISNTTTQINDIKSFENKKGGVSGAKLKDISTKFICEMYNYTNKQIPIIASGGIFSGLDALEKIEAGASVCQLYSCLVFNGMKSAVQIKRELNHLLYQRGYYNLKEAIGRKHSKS
To be noted: read-out: IC50 against the enzyme; initial lead; ref [15]; cited from earlier work.

Assay [2] concerns the target T1, PfDHODH. The experiment in a line: PfDHODH DCIP dye-based enzyme assay. The following applies: 33 vs 49, 34 vs 45. It counts as biochemical.

SMILES strings stand for the structures.

The term IC50 denotes the concentration that gives 50% inhibition. Take `Cc1cc(Nc2ccc3ccccc3c2)n2ncnc2n1` [Compound 1, (5-methyl-[1,2,4]triazolo[1,5-a]pyrimidin-7-yl)-naphthalen-2-yl-amine]: the IC50 in assay [1] is 0.05 to 0.1 µM.

In the case of `Cc1cc(Nc2ccc3c(c2)CCCC3)n2ncnc2n1` [Compound 33, 5-methyl-N-(5,6,7,8-tetrahydronaphthalen-2yl)-[1,2,4]triazolo[1,5-a]pyrimidin-7-amine], in assay [2], the “fold more potent than equivalent analog with cycloalkyl ring bound to N1” value worked out at 15 fold. On to `Cc1cc(Nc2ccc3c(c2)CCC3)n2ncnc2n1` [Compound 34, N-(2,3-dihydro1H-inden-5-yl)-5-methyl-[1,2,4]triazolo[1,5-a]pyrimidin-7-amine], for which the “fold more potent than equivalent analog with cycloalkyl ring bound to N1” value in assay [2] was determined as 2 fold.
